Measured values reported in ChEMBL document CHEMBL1137302 (J Med Chem, 2006).
Active and inactive are the calls of the source. The calls are words filed in the database; no cut-off is given here.

Tested on: D(2) dopamine receptor (Mustela putorius furo)
Test: Agonist activity at ferret D2 receptor in HEK293 cells coexpressing Galphaqo5 by FLIPR relative to dopamine upto 10 uM

- Activity: inactive
Structure (SMILES): Cc1cccc(NC(=O)CN2CCC(c3cccc[n+]3[O-])CC2)c1
